The values that follow come from PMC3234294 (Analytical chemistry, 2011).

Data set [1] is described as follows: QCM Herceptin concentration in breast cancer patient serum. The following applies: patient #3, metastatic ER PR Her2/neu positive, after infusion; C = (ΔF +1.0022) ÷ 0.9997 × 10. It counts as in vivo, human.
The nature of data set [2]: AFM of Herceptin on CH-19 peptide SAM on Au. The data set is classed as physicochemical. The following applies: AFM in PBS buffer, after 1 hour exposure to CH-19 SAM.

Consider “Herceptin: humanized MAb binding extracellular domain IV segment of HER2”, for which, in data set [1], the “Tested C of Herceptin in undiluted serum” value worked out at 193.18 µg/mL. Besides, the “average height of adsorbed Herceptin particles” value in data set [2] was 0.1 nm.
